Values quoted from earlier work, collected in patent US20090181890A1, “Amylin and Amylin Agonists for Treating Psychiatric Diseases and Disorders” (Amylin Pharmaceuticals , Inc., priority 2006, published 2009).

Details: compared to human amylin; cited from earlier work

In the case of `CC[C@H](C)[C@H](NC(=O)[C@@H]1CCCN1C(=O)CNC(=O)[C@H](Cc1ccccc1)NC(=O)[C@H](CC(N)=O)NC(=O)[C@H](CC(N)=O)NC(=O)[C@H](CO)NC(=O)[C@H](CO)NC(=O)[C@H](Cc1c[nH]cn1)NC(=O)[C@@H](NC(=O)[C@H](CC(C)C)NC(=O)[C@H](Cc1ccccc1)NC(=O)[C@H](CC(N)=O)NC(=O)[C@H](C)NC(=O)[C@H](CC(C)C)NC(=O)[C@H](CCCNC(=N)N)NC(=O)[C@H](CCC(N)=O)NC(=O)[C@@H](NC(=O)[C@H](C)NC(=O)[C@@H]1CSSC[C@H](NC(=O)[C@@H](N)CCCCN)C(=O)N[C@@H](CC(N)=O)C(=O)N[C@@H]([C@@H](C)O)C(=O)N[C@@H](C)C(=O)N[C@@H]([C@@H](C)O)C(=O)N1)[C@@H](C)O)C(C)C)C(=O)N[C@@H](CC(C)C)C(=O)N1CCC[C@H]1C(=O)N1CCC[C@H]1C(=O)N[C@H](C(=O)N[C@@H](CC(N)=O)C(=O)N[C@H](C(=O)NCC(=O)N[C@@H](CO)C(=O)N[C@@H](CC(N)=O)C(=O)N[C@H](C(=O)N[C@@H](Cc1ccc(O)cc1)C(N)=O)[C@@H](C)O)C(C)C)[C@@H](C)O` [^25,28,29Pro-h-amylin], the solubility characteristics is given as “more desirable”.
